{"source": "patent US4469706A", "about": "“Selective beta-2 adrenergic antagonists for the treatment of glaucoma” (priority 1982, dated 1984)", "target": "rabbit ciliary process adenylate cyclase (Oryctolagus cuniculus, UniProt G1TAV7)", "assay": "Rabbit ciliary process beta-adrenergic sensitive adenylate cyclase activity"}
{"smiles": "CC(C)NCC(O)c1ccc(O)c(O)c1", "note": "(stereo not drawn) [Isoproterenol]", "values": [{"measurement": "EC50", "value": 360, "unit": "nM"}, {"measurement": "Adenylate Cyclase Ka, Ciliary Process Rabbit (B)", "setting": "agonists, Table I", "value": 0.36, "unit": "µM"}, {"measurement": "Maximal stimulation of ciliary process enzyme activity, of basal activity", "setting": "rabbit", "value": "331±44", "unit": "%"}]}
